Literature values as cited in patent EP0408284B1, “Amylin for treatment of bone disorders” (AMYLIN PHARMACEUTICALS, INC., priority 1989, dated 1996).
Like-named read-outs stand apart in the source and are kept apart here.

Settings: cited from earlier work

## human calcitonin gene-related peptide-α (ACDTATCVTHRLAGLLSRSGGVVKNNFVPTNVGSKAF; Calcitonin gene-related peptide 1 C-terminal amide; UniProt P06881 83-119, looked up) [CGRP, neurotransmitter, alternative splice product of the α-calcitonin gene]
Rabbit and chick, higher doses
  effect on plasma calcium: parathyroid hormone-like hypercalcemic effect
rabbits, lower doses
  effect on plasma calcium: hypocalcaemic
